Test results published in US20040014658A1.
Values belong to the substance of their own block, whether it stands above or below them.

Key:
Test in all cases: cell-based or functional assay
[1] = biological target: FGF Receptor 1
[2] = biological target: FGF Receptor 2
[3] = biological target: FGF Receptor 3
[4] = biological target: FGFR3-IIIb isoform

- JNK activation (Western, anti-active JNK), lowest active concentration [1]: < 12.5 ng/mL
- JNK activation (Western, anti-active JNK), lowest active concentration [2]: < 12.5 ng/mL
- JNK activation (Western, anti-active JNK), lowest active concentration [3]: < 12.5 ng/mL
Substance: L37M-FGF9 (from UniProt P31371 38-208) (ligand)

- concentration needed for a mitogenic response on FGFR1-transfected FDCP cells (FIG. 3) [1]: > 50 ng/mL
- proliferation of FDCP-FGFR1 cells (XTT) at raised concentration (fold higher concentration) [1]: 100
- proliferation of FDCP cells expressing the FGFR3-IIIb isoform, level of the comparator (not given) over L37M-W144G-FGF9 [4]: > 2 fold
Substance: L37M-W144G-FGF9 (from UniProt P31371 38-208) (ligand)

- proliferation of FDCP-FGFR3 cells (XTT), level against FGF-9 (fold lower than FGF-9) [3]: 5
Substance: L37M-W144R-FGF9 (from UniProt P31371 38-208) (ligand)
